Earlier results, collected in article PMC6716341 (ACS Central Science, 2019).

Sequences of proteins named here, by UniProt entry; tags and fusion partners are left off. A change or cut given only in a name is not applied to a line headed by its entry.
UniProt P05067: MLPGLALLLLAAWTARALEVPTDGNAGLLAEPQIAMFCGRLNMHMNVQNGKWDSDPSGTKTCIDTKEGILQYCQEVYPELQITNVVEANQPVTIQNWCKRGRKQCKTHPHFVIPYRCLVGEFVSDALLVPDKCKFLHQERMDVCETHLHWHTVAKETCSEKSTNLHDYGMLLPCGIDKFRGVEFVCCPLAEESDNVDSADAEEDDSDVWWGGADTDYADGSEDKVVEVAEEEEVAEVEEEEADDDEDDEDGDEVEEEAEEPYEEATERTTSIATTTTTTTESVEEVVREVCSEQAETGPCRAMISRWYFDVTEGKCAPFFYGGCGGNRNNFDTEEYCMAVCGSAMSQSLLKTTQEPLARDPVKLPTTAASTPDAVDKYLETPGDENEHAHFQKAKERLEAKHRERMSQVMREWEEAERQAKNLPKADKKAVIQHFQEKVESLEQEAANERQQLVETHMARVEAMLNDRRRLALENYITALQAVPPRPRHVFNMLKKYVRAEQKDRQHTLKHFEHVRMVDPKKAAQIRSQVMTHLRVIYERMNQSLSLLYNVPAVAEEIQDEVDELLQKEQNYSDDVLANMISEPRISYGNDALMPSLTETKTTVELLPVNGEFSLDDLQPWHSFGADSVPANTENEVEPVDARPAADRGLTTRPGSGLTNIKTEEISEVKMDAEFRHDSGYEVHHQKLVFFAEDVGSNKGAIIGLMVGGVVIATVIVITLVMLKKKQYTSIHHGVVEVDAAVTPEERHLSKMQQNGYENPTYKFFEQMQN

System: 5XFAD transgenic mice
Details: injection; cited from earlier work

Substance	amyloid plaque accumulation
isomerized Aβ1–16: isomerized Aβ1–16, injected in 5XFAD mice (literature) (DAEFRHDSGYEVHHQK; Amyloid-beta protein 42 isomerized; UniProt P05067 672-687, looked up, fragment)	significantly increased amyloid plaque accumulation
canonical Aβ1–16: canonical Aβ1–16 (literature) (DAEFRHDSGYEVHHQK; Amyloid-beta protein 42; UniProt P05067 672-687, looked up, fragment)	does not
